{"source": "patent US20130045491A1", "about": "“METHODS FOR ACTIVATING T CELLS” (priority 2011, published 2013)", "key": {"[1]": {"tested_on": "CCR6^+IL-17^+ cells", "assay": "IL-17 expression in sorted CCR6+IL-17+ memory T cells cultured in IL-2 medium", "assay_type": "cell-based, human", "details": "IL-2-supplemented medium, 6 days, restimulation", "method": "(§1) Peripheral Blood Mononuclear Cells (PBMCs) from healthy individuals (New York Blood Center, New York, N.Y.) were prepared using Ficoll-paque plus (GE Amersham, Uppsala, Sweden). Whole blood samples from rheumatoid arthritis patients were purchased from Bioreclamation (New York, N.Y.) and were processed similar to healthy donor blood. All healthy donor and patient samples were consented prior to purchase, were none-identifiable and approved by institutional human subjects board. CD4^+ T cells were isolated using Dynal CD4 Positive Isolation Kit (Invitrogen, Carlsbad, Calif.) directly from purified PBMCs and were >99% pure. CD4^+ T cells were sorted by FACS ARIA cell sorter (BD, San Jose, Calif.) into CD45RO^+ CD25^− memory T (TM) cells. TM cells were activated either by anti-CD3 and anti-CD28 (aCD3/aCD28) coated beads (1:4 beads:cells ratio) for 18-24 hours, or by Phorbol 12-myristate 13-acetate (PMA) and ionomycin for 4 hours and further FACS sorted based on CCR6 and IL-17 expression into CCR6^−IL-17^−, CCR6^+IL-17^+, or CCR6^+ IL-17^− subsets (as determined by secretion assay labeling, see below). Sorted cells (>99% pure) were cultured in serum-free Xvivo-15 medium (Lonza, Wakersville, Md.) at 37° C. and 5% CO2 for 6-7 days prior to restimulation with PMA and ionomycin (see below). […]"}, "[2]": {"tested_on": "CCR6^+ IL-17^− memory T cells from wild-type C57B/6 mice", "assay": "IL-17 production by sorted mouse CCR6+IL-17- memory T cells cultured with IL-2", "assay_type": "cell-based", "details": "6 days in culture with IL-2; not seen in CCR6- cells", "method": "Wild-type C57B6/J mice were purchased from Jackson Laboratories (Bar Harbor, Me.) and all mice were used in accordance with a protocol approved by the animal care and use committee of Sirtris pharmaceuticals. Single cell suspensions were prepared from spleens and peripheral lymph nodes following red blood cell lysis (Sigma-Aldrich, USA). CD4^+ T cells were enriched by magnetic cell sorting using the mouse CD4^+ T cell isolation kit II (Miltenyi Biotec, Auburn, Calif.) in accordance with manufacturers instructions, and these cells were stimulated for 18-24 hours using plate-bound anti-CD3 (eBioscience) and anti-CD28 (BD Biosciences) antibodies as previously described (Sundrud, et al., Science (New York, N.Y.) 2009 324: 1334-1338). Activated T cells were then stained for cell surface receptors and subjected to mouse IL-17 capture assay for FACS sorting into CD62L^loCCR6^31 IL-17^−, CD62L^loCCR6^+IL-17^−, or CD62L^loCCR6^+IL-17^+ subsets (see below). Sorted mouse T cell populations were cultured in DMEM medium (Mediatech, Inc., USA) containing 10% FCS (Invitrogen). To expand sorted T cell populations, 10 U/mL recombinant human IL-2 (BD Biosciences) and mouse CD3/CD28 T cell expander beads (1:2 beads:cells ratio) (Invitrogen) were added and cells were cultured for 6 days prior to restimulation. […]"}, "[3]": {"tested_on": "CCR6^+IL-17^− TM cells from RA patients", "assay": "IL-17 induction in CCR6+IL-17- memory T cells from rheumatoid arthritis patients cultured with IL-2", "assay_type": "cell-based, human", "details": "culture with IL-2, 7 days; not seen in CCR6- cells", "method": "as §1"}, "[4]": {"tested_on": "CCR6^+IL-17^+ and CCR6^+IL-17^− T cells", "assay": "Proliferation of CFSE/eFluor 670-labelled CCR6+IL-17+ and CCR6+IL-17- T cells in response to IL-2", "assay_type": "cell-based, human", "details": "IL-2 stimulation, dye dilution day 2 and 4", "method": "as §1"}}}
{"substance": "IL-2: recombinant human IL-2 (BD Biosciences), γc-cytokine, used at 10 U/mL", "values": [{"measurement": "IL-17 expression in cells initially sorted as CCR6+IL-17+", "setting": "[1]", "value": "maintained high-level IL-17 expression"}, {"measurement": "IL-17 production by mouse CCR6+ IL-17- memory T cells", "setting": "[2]", "value": "capable of producing IL-17"}, {"measurement": "IL-17 expression in CCR6+ IL-17- memory T cells from RA patients", "setting": "[3]", "value": "upregulated IL-17"}, {"measurement": "proliferation of CCR6+IL-17+ versus CCR6+IL-17- T cells", "setting": "[4]", "value": "proliferate similarly"}]}
